Literature values as cited in US7908091B2, “Methods of predicting and monitoring tyrosine kinase inhibitor therapy” (Prometheus Laboratories Inc., priority 2006, dated 2011).

Conditions: human, in vivo; cited from earlier work

Clc1ccc(Nc2nnc(Cc3ccncc3)c3ccccc23)cc1 [vatalanib]
most common / toxic side-effects: ataxia, vertigo, hypertension, and venous thromboembolism
